Measured values from US10100049B2, “JAK kinase inhibitor compounds for treatment of respiratory disease” (THERAVANCE BIOPHARMA R&D IP, LLC, priority 2015, dated 2018).

Sequences of proteins named here, by UniProt entry; tags and fusion partners are left off. A change or cut given only in a name is not applied to a line headed by its entry.
UniProt P29597: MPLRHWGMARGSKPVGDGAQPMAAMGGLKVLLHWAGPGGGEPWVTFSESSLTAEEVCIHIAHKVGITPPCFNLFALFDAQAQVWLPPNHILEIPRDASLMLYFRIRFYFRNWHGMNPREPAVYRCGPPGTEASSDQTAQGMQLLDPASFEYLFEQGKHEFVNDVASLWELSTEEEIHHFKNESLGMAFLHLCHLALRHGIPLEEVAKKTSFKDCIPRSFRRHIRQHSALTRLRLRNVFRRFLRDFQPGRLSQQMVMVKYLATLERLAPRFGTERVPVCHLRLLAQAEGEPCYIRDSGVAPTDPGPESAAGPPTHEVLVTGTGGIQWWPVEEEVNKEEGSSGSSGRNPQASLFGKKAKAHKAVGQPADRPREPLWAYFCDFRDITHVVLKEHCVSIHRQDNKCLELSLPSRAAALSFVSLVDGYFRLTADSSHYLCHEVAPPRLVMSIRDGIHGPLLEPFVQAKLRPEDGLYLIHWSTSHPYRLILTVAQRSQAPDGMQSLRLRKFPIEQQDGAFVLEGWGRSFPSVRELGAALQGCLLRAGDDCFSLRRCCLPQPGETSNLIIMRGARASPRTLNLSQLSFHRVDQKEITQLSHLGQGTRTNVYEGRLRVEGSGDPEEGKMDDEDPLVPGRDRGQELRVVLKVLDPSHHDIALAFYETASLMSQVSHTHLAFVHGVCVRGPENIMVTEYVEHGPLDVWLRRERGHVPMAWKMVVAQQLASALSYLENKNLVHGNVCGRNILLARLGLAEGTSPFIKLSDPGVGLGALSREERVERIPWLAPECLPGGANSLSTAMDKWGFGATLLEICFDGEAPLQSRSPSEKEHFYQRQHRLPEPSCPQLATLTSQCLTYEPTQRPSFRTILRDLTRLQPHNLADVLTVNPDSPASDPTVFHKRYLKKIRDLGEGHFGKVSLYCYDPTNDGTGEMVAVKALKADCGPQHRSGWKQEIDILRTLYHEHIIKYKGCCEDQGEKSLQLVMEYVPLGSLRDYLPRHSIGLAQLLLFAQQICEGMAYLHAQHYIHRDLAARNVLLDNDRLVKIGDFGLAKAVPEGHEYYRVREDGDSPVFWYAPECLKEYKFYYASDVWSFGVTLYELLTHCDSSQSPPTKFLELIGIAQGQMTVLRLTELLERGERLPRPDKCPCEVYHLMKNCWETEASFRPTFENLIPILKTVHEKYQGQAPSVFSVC

Molecular target: Tyk2 (Homo sapiens (Human), UniProt P29597)
Assay: LanthaScreen JAK biochemical assay (Tyk2); also: ATP at Km 10 µM
Conditions: read-out: Tyk 2 (PKi)

SMILES: CCc1cc(O)c(F)cc1-c1ccc2c(-c3nc4c([nH]3)CCN(CCN3CCCC3)C4)n[nH]c2c1 [Example 16, 5-Ethyl-2-fluoro-4-(3-(5-(2-(pyrrolidin-1-yl)ethyl)-4,5,6,7-tetrahydro-1H-imidazo[4,5-c]pyridin-2-yl)-1H-indazol-6-yl)phenol]
- Ki: 0.1 to 1 nM
